# PubChem BioAssay AID2107 (National Center for Advancing Translational Sciences (NCATS), 2009)
# Amino acid sequences for entries named in this document (tags omitted). A change or cut given only in a name is not applied to a line headed by its entry.
# UniProt P06280: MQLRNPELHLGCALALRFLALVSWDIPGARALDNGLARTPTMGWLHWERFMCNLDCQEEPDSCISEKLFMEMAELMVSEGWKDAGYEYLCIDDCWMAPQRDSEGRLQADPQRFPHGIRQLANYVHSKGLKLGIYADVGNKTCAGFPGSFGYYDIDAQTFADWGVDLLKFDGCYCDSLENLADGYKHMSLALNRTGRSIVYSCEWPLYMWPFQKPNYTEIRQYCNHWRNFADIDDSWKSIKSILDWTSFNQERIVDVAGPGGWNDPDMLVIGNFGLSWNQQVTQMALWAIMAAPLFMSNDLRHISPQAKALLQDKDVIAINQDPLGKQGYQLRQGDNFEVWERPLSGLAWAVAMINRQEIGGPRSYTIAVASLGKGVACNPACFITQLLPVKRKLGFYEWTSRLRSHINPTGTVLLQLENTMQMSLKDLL
# Values joined by “and” are separate entries in the source; they are usually repeats but may differ in a detail not shown here. Equal entries are not always repeated. Only a part is listed here, and it is no random draw. Active and inactive are the calls of the source. Calls follow the shape of the dose curve; as a rule, active = well fitted inhibition curve with a large enough effect; inconclusive = small, poorly fitted or top-dose-only effect, or effect the other way; inactive = flat fitted curve, though single readings scatter.
# Biological target: Alpha-galactosidase A (Homo sapiens) (UniProt P06280)
# Assay: qHTS Assay for Inhibitors and Activators of Human alpha-Galactosidase From Spleen Homogenate;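 also: 0% = enzyme with vehicle and -100% = no enzyme basal signal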
# Conditions: 4MU-alpha-Gal fluorescence, 40 min; at 80 µM (top of the series) unless noted
# Description: NIH Chemical Genomics Center [NCGC] NIH Molecular Libraries Probe Production Centers Network [MLPCN] MLPCN Grant: R03 MH084842-01 Assay Submitter (PI): Wei Zheng NCGC Assay Overview: Alpha-galactosidase is a homodimeric glycoprotein that hydrolyzes the terminal alpha-galactosyl moieties from glycolipids and glycoproteins. Deficiency of this enzyme results in Fabry Disease with progressive accumulation of globotriaosylceramide and other glycosphingolipids in vascular endothelial cells that causes renal failure, myocardial infarction and stroke, and premature death in patients. It has been reported that the improper folding and trafficking of alpha-galactosidase resulting from genetic mutations may account for a significant number of Fabry patients. […] We optimized this alpha-galactosidase assay in 1536-well plate format for identification of novel small molecule inhibitors or activators with structures other than the sugar analogs in order to develop new pharmacological chaperones. In particular, this assay is directed towards discovering compounds active in more natural setting, tissue homogenate, that may have been missed by screens of the purified enzyme under more stringent conditions.
# NCGC Assay Protocol Summary: This is a fluorogenic enzyme assay with 4-methylumbelliferyl-alpha-D-galactopyranoside as the substrate and human spleen homogenate containing alpha-galactosidase as the enzyme preparation. Upon hydrolysis of this fluorogenic substrate, the resulting product, 4-methylumbelliferone (which excites at 365 nm and emits at 440 nm) can be detected by a fluorescence plate reader. Data were normalized to the controls for basal activity (without enzyme) and 100% activity (with enzyme). The AC50 values were determined from concentration-response data modeled with the standard Hill equation. Assay buffer: 50 mM citric acid (titrated with potassium phosphate to pH 5.0), 0.01% Tween-20 (pH 5.0 is an optimal condition for this enzyme assay) 1536-well assay protocol for the alpha-galactosidase from human spleen homogenate: (1) Add 2 ul/well spleen homogenate (1 ug) (2) Add 23 nL compounds in DMSO solution. The final titration was 0.5 nM to 58 uM. (3) Add 2 ul of substrate (1 mM final) (4) Incubate at 37C for 40 min (5) Add 2 ul stop solution (1M NaOH and 1M Glycine mixture, pH 10) (6) Detect the assay plate in a ViewLux plate reader (PerkinElmer) with Ex=365 nm and Em=440nm. Keywords: Alpha-galactosidase, Fabry Disease, pharmacological chaperone, chaperone therapy, high throughput screening, alpha- galactosidase inhibitor, MLSMR, MLSCN, NIH Roadmap, qHTS and NCGC
row,SMILES,"activity change, negative = inhibition"
1,Cc1ccc(NP(=O)(Oc2ccccc2F)Oc2ccccc2F)nc1,inactive: 3.39%
2,CN(C(=O)Cc1ccc(Cl)c(Cl)c1)[C@H]1CCCC[C@@H]1N1CCCC1,inactive: 2.92% [middle of 10 runs]
3,CCOP(=O)(Nc1ccccc1)OCC,inactive: 3.68% and inactive: 1.7%
4,Cc1cc(SC(NC(=O)c2ccc(F)cc2)C(Cl)(Cl)Cl)ncn1 (centres undefined),inactive: -1.32%
5,O=P(Nc1nc2ccc(Cl)cc2s1)(c1ccccc1)c1ccccc1,inactive: 4.9%
6,O=C(O)c1ccccc1[As](=O)(O)O,inactive: -7.16%
7,CC(=O)Nc1ccc([As](=O)(O)O)cc1,inactive: 8.81%
8,Nc1cccc2ccc([As](=O)(O)O)cc12,inactive: -1.41%
9,CCN(N=Nc1nonc1N)c1nonc1N,inactive: 6.59%
10,Clc1ccc(Cl)c(NC2=NCC(CBr)S2)c1 (centres undefined),inactive: -4.51%
11,CN1CCCC(OC(=O)C(c2ccccc2)c2ccccc2)C1 (centres undefined),inactive: -6.01%
12,Cc1ccc(OP(=O)(Nc2nccs2)Oc2ccc(C)cc2)cc1,inactive: 4.53%
13,COc1ccccc1OP(=O)(Nc1ccc(C)cn1)Oc1ccccc1OC,inactive: 5.35%
14,Cc1ccc(N/C(=N/P(=O)(N2CCOCC2)N2CCOCC2)N2CCOCC2)cc1,inactive: -0.552%
15,NC(=O)c1cc([N+](=O)[O-])cc([N+](=O)[O-])c1N,inactive: -3.15%
16,Cc1c2non([O-])c-2c(C)[n+](=O)[n+]1[O-],inactive: -3.91%
17,O=C(NC(Sc1ccncn1)C(Cl)(Cl)Cl)c1ccccc1 (centres undefined),inactive: -17.2%
18,Oc1ccccc1CNc1ccccn1,inactive: 0.115%
19,CC(C)CC(=O)NC(Sc1ccc(Cl)cc1)C(Cl)(Cl)Cl (centres undefined),inactive: -1.31%
20,Nc1cc(N)c2nonc2c1[N+](=O)[O-],inactive: 1.84%
21,CCc1nc2c(n1)c1c(non1O)c1c2no[n+]1[O-],inactive: 2.71%
22,O=[N+]([O-])c1cc([N+](=O)[O-])c(CCNc2ccccc2)c([N+](=O)[O-])c1,inactive: 2.06%
23,Cc1ccc(NP(=O)(Oc2ccccc2)Oc2ccccc2)nc1,inactive: 1.48%
24,O=[N+]([O-])c1cccc2n[nH]nc12,inactive: -0.985%
25,CC(=O)N1C2C3N(C(C)=O)C1C1N(C(C)=O)C(C(N1C(C)=O)N3C(C)=O)N2C(C)=O,inactive: -10.1%

row,SMILES,"activity change, negative = inhibition"
1,COc1ccc(C2=NCC(CBr)S2)cc1 (centres undefined),inactive: -1.43%
2,CC1CCN(C(=O)Oc2c(Cl)cc(Cl)c3cccnc23)CC1,inactive: 0.266%
3,CC(=O)C1=CCCC2CCC1N2 (centres undefined),inactive: 1.44% and inactive: -7.49%
4,CN(C)C(=O)OCCc1n(C)cc[n+]1C,inactive: 4.12%
5,CC(C)=N/N=C(\N)N[N+](=O)[O-],inactive: -21.1%
6,CCN(/C(=N/P(=O)(N1CCOCC1)N1CCOCC1)N1CCOCC1)c1ccc(OC)cc1,inactive: -1.18%
7,C[N+]1=C2C=CC=CC=C2SC12C([N+](=O)[O-])=CC([N+](=O)[O-])=C[C-]2[N+](=O)[O-] (centres undefined),inactive: -0.759%
8,Nc1ccc([As](=O)(O)c2ccc(N)cc2)cc1,inactive: 12.7%
9,O=C(Nc1cc([As](=O)(O)O)ccc1O)c1ccccc1,inactive: -8.5%
10,O=C(O)CNc1ccc([As](=O)(O)O)cc1,inactive: -0.395%
11,O=[N+]([O-])c1cccc(NC2=NCC(CBr)S2)c1 (centres undefined),inactive: 4.36%
12,O=[N+]([O-])c1ncn(CCn2ncnc2[N+](=O)[O-])n1,inactive: -4.39%
13,CC(C)(C)C(=O)NC(Sc1ccncn1)C(Cl)(Cl)Cl (centres undefined),inactive: -20.2%
14,CN(C(=O)Cc1ccccc1)[C@H]1CC[C@@]2(CCCO2)C[C@@H]1N1CCCC1,inactive: 4.79%
15,Cc1cc([N+](=O)[O-])cc([N+](=O)[O-])c1O,inactive: 1.28%
16,C[C@H]1OP(=O)(Oc2ccccc2)[C@H](O)[C@H](O)[C@H]1N=[N+]=[N-] (some centres undefined),inactive: 1.87%
17,O=P(Nc1nc2ccccc2s1)(c1ccccc1)c1ccccc1,inactive: 4.05%
18,O=P(Nc1ccccn1)(c1ccc(Br)cc1)c1ccc(Br)cc1,inactive: -0.913%
19,O=C(OC1CN2CCC1CC2)c1cccc(Cl)c1 (centres undefined),inactive: -8.52%
20,Nc1ccc([As](=O)(O)c2ccc([N+](=O)[O-])cc2)cc1,inactive: 2.76%
21,C(Cc1nn[nH]n1)Cc1nn[nH]n1,inactive: -3.58%
22,O=[As](O)(c1ccccc1)c1ccc(O)cc1,inactive: 7.67%
23,O=[N+]([O-])c1ncn(CCn2cnc([N+](=O)[O-])n2)n1,inactive: -5%
24,CC(=O)NC(SC(=S)N(C)C)C(Cl)(Cl)Cl (centres undefined),inactive: -2.52%
